What is called Ki is a dissociation constant, usually derived from enzyme kinetics or from competition with a known ligand.

From ChEMBL document CHEMBL1143257, “Structure-activity relationships of novel HIV-1 protease inhibitors containing the 3-amino-2-chlorobenzoyl-allophenylnorstatine structure” (Bioorg Med Chem, 2008) come the findings set out here.

The test has as its target Protease (Human immunodeficiency virus 1, UniProt Q9YQ12). Put plainly: Inhibition of HIV1 protease.

`CC(C)(C)NC(=O)[C@@H]1CN(Cc2cccnc2)CCN1C[C@@H](O)C[C@@H](Cc1ccccc1)C(=O)N[C@H]1c2ccccc2C[C@H]1O` yielded a Ki of 0.739 nM.

Molecule `Cc1cccc(C)c1OCC(=O)N[C@@H](Cc1ccccc1)[C@@H](O)C[C@H](Cc1ccccc1)NC(=O)[C@H](C(C)C)N1CCCNC1=O` [LOPINAVIR] gave a Ki of 0.016 nM.

`CC(C)(C)NC(=O)[C@@H]1C[C@@H]2CCCC[C@@H]2CN1C[C@@H](O)[C@H](Cc1ccccc1)NC(=O)[C@H](CC(N)=O)NC(=O)c1ccc2ccccc2n1` registered a Ki of 0.138 nM. This Ki is about 8.6-fold higher than that of the molecule before.
